Experimental data reported in ChEMBL document CHEMBL1152029 (1997).

Experiments:
V79 [1] = experiment: The cytotoxicity in vitro against Chinese hamster V-79 cells at concentration of 0.1 mM
V79 [2] = experiment: The cytotoxicity in vitro against Chinese hamster V-79 cells at concentration of 0.5 mM
V79 [3] = experiment: The in vitro radioprotective effect measured against Chinese hamster V-79 cells at concentration of 0.1 mM
Mus musculus [4] = experiment: %Survival of compound was measured using CD2F1 male mice in group of ten at 473 mg/kg dose on day 30
Mus musculus [5] = experiment: The percent increase in life span was measured using CD2F1 male mice at 473 mg/kg dose
V79 [6] = experiment: The cytotoxicity in vitro against Chinese hamster V-79 cells at concentration of 1 mM
Mus musculus [7] = experiment: Mean survival time of compound was measured using CD2F1 male mice in group of ten at 473 mg/kg dose on day 30
[8] = Mean survival time of treated group(T) and Mean survival time of control group(C) was measured using CD2F1 male mice at 473 mg/kg dose

CNCCCNCCSP(=O)(O)O
Survival (V79 [1]): 100% | Survival (V79 [2]): 95% | DMF (V79 [3]): 2 | Survival (Mus musculus [4]): 80% | ILS (Mus musculus [5]): 81% | Survival (V79 [6]): 97% | MST (Mus musculus [7]): 27 | Ratio [8]: 2.6
